Results taken from patent US12122815B2, “GIP receptor agonist peptide compounds and uses thereof” (TAKEDA PHARMACEUTICAL COMPANY LIMITED, priority 2018, dated 2024).

The chains behind the UniProt entries cited, without tags or fusion partners. Residues count along the entry.
UniProt P43220, 24-463: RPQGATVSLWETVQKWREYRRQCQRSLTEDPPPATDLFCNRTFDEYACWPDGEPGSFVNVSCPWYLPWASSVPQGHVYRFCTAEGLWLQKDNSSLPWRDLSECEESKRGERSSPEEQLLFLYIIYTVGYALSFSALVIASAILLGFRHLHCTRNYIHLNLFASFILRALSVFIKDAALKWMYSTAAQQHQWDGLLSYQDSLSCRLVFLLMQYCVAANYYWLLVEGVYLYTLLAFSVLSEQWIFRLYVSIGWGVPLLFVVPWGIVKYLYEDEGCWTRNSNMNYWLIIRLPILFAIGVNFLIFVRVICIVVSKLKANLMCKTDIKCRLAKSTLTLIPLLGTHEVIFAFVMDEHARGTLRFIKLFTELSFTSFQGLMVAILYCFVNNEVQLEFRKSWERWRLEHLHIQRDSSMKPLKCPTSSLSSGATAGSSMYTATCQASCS

Legend:
human GIPR = target: T1, human GIPR (Homo sapiens, UniProt P48546); test: Agonist activity on human GIPR, CRE-luciferase reporter assay with increase in intracellular cAMP as indicator (hGIPR/CRE-LUC/CHO-K1 cell); assay type: cell-based
T1 construct: FLAG (N)
T1 sequence (P48546 22-466): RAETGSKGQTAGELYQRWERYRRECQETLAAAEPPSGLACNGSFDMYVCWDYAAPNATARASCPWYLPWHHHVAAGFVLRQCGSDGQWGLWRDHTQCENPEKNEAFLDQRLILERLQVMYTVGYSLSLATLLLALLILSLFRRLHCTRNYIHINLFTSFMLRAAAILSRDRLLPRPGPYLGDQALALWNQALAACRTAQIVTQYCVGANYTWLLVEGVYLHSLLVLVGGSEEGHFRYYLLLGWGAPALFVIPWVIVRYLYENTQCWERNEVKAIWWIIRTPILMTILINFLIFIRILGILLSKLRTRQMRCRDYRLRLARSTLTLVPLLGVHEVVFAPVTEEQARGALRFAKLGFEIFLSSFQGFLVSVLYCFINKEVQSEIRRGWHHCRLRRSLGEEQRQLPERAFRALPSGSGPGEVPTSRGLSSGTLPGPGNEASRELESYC

human GLP-1R = target: T2, human GLP-1R (Homo sapiens, UniProt P43220); test: Agonist activity on human GLP-1R, CRE-luciferase reporter assay with increase in intracellular cAMP as indicator (hGLP-1R/CRE-luc/CHO-K1 cell); assay type: cell-based
T2 construct: FLAG (N)

Row | SMILES | EC50 (human GIPR) [nM] | EC50 (human GLP-1R) [nM]
1 | CC[C@H](C)[C@H](NC(=O)[C@H](CO)NC(=O)[C@H](Cc1ccc(O)cc1)NC(=O)[C@H](CC(C)C)NC(=O)[C@H](CO)NC(=O)[C@@H](NC(=O)[C@@H](NC(=O)[C@@H](NC(=O)CNC(=O)[C@H](CCC(=O)O)NC(=O)C(C)(C)NC(=O)[C@@H](N)Cc1ccc(O)cc1)[C@@H](C)O)C(C)C)C(C)C)C(=O)NC(C)(C)C(=O)N[C@@H](CC(C)C)C(=O)N[C@@H](CC(=O)O)C(=O)N[C@@H](CCCCN)C(=O)N[C@@H](CCC(N)=O)C(=O)N[C@@H](C)C(=O)N[C@@H](CCC(N)=O)C(=O)NC(C)(C)C(=O)N[C@@H](CCC(=O)O)C(=O)N[C@@H](Cc1ccccc1)C(=O)N[C@H](C(=O)N[C@@H](CCCCN)C(=O)N[C@@H](Cc1c[nH]c2ccccc12)C(=O)N[C@@H](CC(C)C)C(=O)N[C@@H](CC(C)C)C(=O)N[C@@H](CCCCN)C(=O)NCC(=O)NCC(=O)N1CCC[C@H]1C(=O)N[C@@H](CO)C(=O)N[C@@H](CO)C(=O)NCC(=O)N[C@@H](C)C(=O)N1CCC[C@H]1C(=O)N1CCC[C@H]1C(=O)N1CCC[C@H]1C(=O)N[C@@H](CO)C(=O)N[C@@H](CCCCNC(=O)CCCCCCCCCCCCCCCCCCC(=O)O)C(N)=O)C(C)C [Compound 1] | 0.76 | > 1000
2 | CC[C@H](C)[C@H](NC(=O)[C@H](CO)NC(=O)[C@H](Cc1ccc(O)cc1)NC(=O)[C@H](CC(C)C)NC(=O)[C@H](CO)NC(=O)[C@@H](NC(=O)[C@@H](NC(=O)[C@@H](NC(=O)CNC(=O)[C@H](CCC(=O)O)NC(=O)C(C)(C)NC(=O)[C@@H](N)Cc1ccc(O)cc1)[C@@H](C)O)C(C)C)C(C)C)C(=O)NC(C)(C)C(=O)N[C@@H](CC(C)C)C(=O)N[C@@H](CC(=O)O)C(=O)N[C@@H](CCCCN)C(=O)N[C@@H](CCC(N)=O)C(=O)N[C@@H](C)C(=O)N[C@@H](CCC(N)=O)C(=O)NC(C)(C)C(=O)N[C@@H](CCC(=O)O)C(=O)N[C@@H](Cc1ccccc1)C(=O)N[C@H](C(=O)N[C@@H](CCCCN)C(=O)N[C@@H](Cc1c[nH]c2ccccc12)C(=O)N[C@@H](CC(C)C)C(=O)N[C@@H](CC(C)C)C(=O)N[C@@H](CCCCN)C(=O)NCC(=O)NCC(=O)N1CCC[C@H]1C(=O)N[C@@H](CO)C(=O)N[C@@H](CO)C(=O)NCC(=O)N[C@@H](C)C(=O)N1CCC[C@H]1C(=O)N1CCC[C@H]1C(=O)N1CCC[C@H]1C(=O)N[C@@H](CO)C(=O)N[C@@H](CCCCNC(=O)CNC(=O)CNC(=O)CNC(=O)CNC(=O)CCCCCCCCCCCCCCC(=O)O)C(N)=O)C(C)C [Compound 7] | – | > 1000
3 | CC[C@H](C)[C@H](NC(=O)[C@H](CO)NC(=O)[C@H](Cc1ccc(O)cc1)NC(=O)[C@H](CC(C)C)NC(=O)[C@H](CO)NC(=O)[C@@H](NC(=O)[C@@H](NC(=O)[C@@H](NC(=O)CNC(=O)[C@H](CCC(=O)O)NC(=O)C(C)(C)NC(=O)[C@@H](N)Cc1ccc(O)cc1)[C@@H](C)O)C(C)C)C(C)C)C(=O)NC(C)(C)C(=O)N[C@@H](CC(C)C)C(=O)N[C@@H](CC(=O)O)C(=O)N[C@@H](CCCCN)C(=O)N[C@@H](CCC(N)=O)C(=O)N[C@@H](C)C(=O)N[C@@H](CCC(N)=O)C(=O)NC(C)(C)C(=O)N[C@@H](CCC(=O)O)C(=O)N[C@@H](Cc1ccccc1)C(=O)N[C@H](C(=O)N[C@@H](CCCCN)C(=O)N[C@@H](Cc1c[nH]c2ccccc12)C(=O)N[C@@H](CC(C)C)C(=O)N[C@@H](CC(C)C)C(=O)N[C@@H](CCCCN)C(=O)NCC(=O)NCC(=O)N1CCC[C@H]1C(=O)N[C@@H](CO)C(=O)N[C@@H](CO)C(=O)NCC(=O)N[C@@H](C)C(=O)N1CCC[C@H]1C(=O)N1CCC[C@H]1C(=O)N1CCC[C@H]1C(=O)N[C@@H](CO)C(=O)N[C@@H](CCCCNC(=O)CCCCCCCCCCCCCCC(=O)O)C(N)=O)C(C)C [Compound 9] | – | 190
